Assay results from patent publication US12528818B2, “Compositions and methods for inhibition of RAS” (Leidos Biomedical Research, Inc., priority 2021, dated 2026).

Experiments:
[1] = target: T1, GTP-loaded KRAS4b (amino acids 1-169) G12C/C118S protein (Homo sapiens, UniProt P01116, C118S/G12C); test: Covalent cysteine 12 modification by MALDI-TOF MS, GTP-loaded KRAS G12C; assay type: biochemical; details: 15 minutes reaction time, compound 95 or later using 1 μM proteins
T1 construct: KRAS4b (amino acids 1-169) G12C/C118S protein; made in house

[2] = target: GDP-loaded KRAS4b (amino acids 1-169) G12C/C118S protein (Homo sapiens, UniProt P01116, C118S/G12C); test: Covalent cysteine 12 modification by MALDI-TOF MS, GDP-loaded KRAS G12C; assay type: biochemical; details: 15 minutes reaction time, compound 95 or later using 1 μM proteins
[3] = target: GppNHp-loaded KRAS4b (amino acids 1-169) G12C/C118S protein (Homo sapiens, UniProt P01116, C118S/G12C); test: Covalent cysteine 12 modification by MALDI-TOF MS, GppNHp-loaded KRAS G12C; assay type: biochemical; details: 15 minutes reaction time, compound 95 or later using 1 μM proteins
[4] = target: Avi-KRAS G12C (1-169) GppNHp/RAF1 RBD-3xFLAG (52-151) (Homo sapiens, UniProt P01116, G12C); test: biochemical; details: Raf1-GppNHp-KRAS G12C disruption, Raf1 RBD-KRAS G12C-GppNHp disruption assay IC50

GTP-KRAS G12C percent of modification [1] | GDP-KRAS G12C percent of modification [2] | GppNHp-KRAS G12C percent of modification [3] | IC50 [4] | Compound
D (percent of modification <10%) | C (10%≤percent of modification <50%) | D (percent of modification <10%) | 0.5 to 5 µM | C=CC(=O)N1CC[C@@H](N(C)c2nc(OCC)nc3c(F)c(-c4ccc(F)c5sc(N)c(C#N)c45)ccc23)[C@H]1C [Compound 463]
C (10%≤percent of modification <50%) | B (50≤percent of modification <70%) | C (10%≤percent of modification <50%) | < 0.5 µM | C=CC(=O)N1CCN(c2nc(OC[C@@]34CCCN3C[C@H](F)C4)nc3c(F)c(-c4ccc(F)c5sc(N)c(C#N)c45)c(C(F)(F)F)cc23)CC12CC2 [Compound 322]
B (50≤percent of modification <70%) | A (percent of modification ≥70%) | A (percent of modification ≥70%) | < 0.5 µM | C=CC(=O)N1C[C@H](C)N(c2nc(OC[C@@H]3CCCN3C)nc3c(F)c(-c4ccc(F)c5sc(N)c(C#N)c45)c(C(F)(F)F)cc23)C[C@H]1C (single isomer, unassigned) [Compound 458]
C (10%≤percent of modification <50%) | B (50≤percent of modification <70%) | B (50≤percent of modification <70%) | < 0.5 µM | C=CC(=O)N1CC[C@@H](N(C)c2nc(OC[C@@]34CCCN3C[C@H](F)C4)nc3c(F)c(-c4ccc(F)c5sc(N)c(C#N)c45)c(C(F)(F)F)cc23)[C@H]1CF [Compound 337]
A (percent of modification ≥70%) | A (percent of modification ≥70%) | A (percent of modification ≥70%) | < 0.5 µM | C=CC(=O)N1C[C@H](N(C)c2nc(OC[C@@]34CCCN3C[C@H](F)C4)nc3c(F)c(-c4ccc(F)c5sc(N)nc45)c(C(F)(F)F)cc23)C[C@H]1C [Compound 274]
C (10%≤percent of modification <50%) | A (percent of modification ≥70%) | B (50≤percent of modification <70%) | < 0.5 µM | C=CC(=O)N1CC[C@H](N(C)c2nc(OC[C@@]34CCCN3C[C@H](F)C4)nc3c(F)c(-c4ccc(F)c5sc(N)c(C#N)c45)c(Cl)cc23)[C@@H]1C (atropisomer, axis not shown) [Compound 467]
A (percent of modification ≥70%) | A (percent of modification ≥70%) | A (percent of modification ≥70%) | < 0.5 µM | C=CC(=O)N1CC[C@@H](N(C)c2nc(OC[C@@]34CCCN3C[C@H](F)C4)nc3c(F)c(-c4ccc(F)c5sc(N)c(C#N)c45)ccc23)C1 [Compound 311]
D (percent of modification <10%) | A (percent of modification ≥70%) | D (percent of modification <10%) | 0.5 to 5 µM | C=CC(=O)N1C[C@H](C)N(c2nc(OC[C@@]34CCCN3C[C@H](F)C4)nc3c(F)c(-c4ccc(F)c5sc(N)nc45)c(C#N)cc23)C[C@H]1C [Compound 326]
D (percent of modification <10%) | C (10%≤percent of modification <50%) | C (10%≤percent of modification <50%) | < 0.5 µM | C=CC(=O)N1C[C@H](C)N(c2nc(N3CC(N4CC5(CC5)C4)C3)nc3c(F)c(-c4ccc(F)c5sc(N)c(C#N)c45)c(C(F)(F)F)cc23)C[C@H]1C [Compound 338, 4-(2-(3-(5-azaspiro[2.3]hexan-5-yl)azetidin-1-yl)-4-((2S,5R)-4-acryloyl-2,5-dimethylpiperazin-1-yl)-8-fluoro-6-(trifluoromethyl)quinazolin-7-yl)-2-amino-7-fluorobenzo[b]thiophene-3-carbonitrile]
A (percent of modification ≥70%) | A (percent of modification ≥70%) | A (percent of modification ≥70%) | < 0.5 µM | C=CC(=O)N1CC[C@@H](N(C)c2nc(OC[C@@]34CCCN3C[C@H](F)C4)nc3cc(-c4ccc(F)c5sc(N)nc45)c(C(F)(F)F)cc23)C1 [Compound 300]
A (percent of modification ≥70%) | A (percent of modification ≥70%) | A (percent of modification ≥70%) | < 0.5 µM | C=CC(=O)N1CC[C@@H](N(C)c2nc(OC[C@@]34CCCN3C[C@H](F)C4)nc3c(F)c(-c4ccc(F)c5sc(N)c(C#N)c45)c(Cl)cc23)C1 [Compound 342]
D (percent of modification <10%) | C (10%≤percent of modification <50%) | D (percent of modification <10%) | > 20 µM | C=CC(=O)N1C[C@H](C)N(c2nc(OCC34CCCN3C[C@H](F)C4)nc3c(F)c(-c4ccc(F)c5sc(C(F)F)nc45)c(C(F)(F)F)cc23)C[C@H]1C (stereo partly drawn) [Compound 307]
C (10%≤percent of modification <50%) | A (percent of modification ≥70%) | A (percent of modification ≥70%) | < 0.5 µM | C=CC(=O)N1C[C@H](C)N(c2nc(OC[C@@]34CCCN3C[C@H](F)C4)nc3c(F)c(-c4ccc(F)c5sc(N)nc45)c(C(F)(F)F)cc23)C[C@H]1C [Compound 202, 1-((2R,5S)-4-(7-(2-amino-7-fluorobenzo[d]thiazol-4-yl)-8-fluoro-2-(((2R,7aS)-2-fluorotetrahydro-1H-pyrrolizin-7a(5H)-yl)methoxy)-6-(trifluoromethyl)quinazolin-4-yl)-2,5-dimethylpiperazin-1-yl)prop-2-en-1-one]
D (percent of modification <10%) | D (percent of modification <10%) | D (percent of modification <10%) | 5 to 20 µM | C=CC(=O)N1CC[C@@H](N(C)c2nc(OC[C@@]34CCCN3C[C@H](F)C4)nc3c(Cl)c(-c4ccc(F)c5sc(N)nc45)c(C(F)(F)F)cc23)C1 (single isomer, unassigned) [Compound 303]
A (percent of modification ≥70%) | A (percent of modification ≥70%) | A (percent of modification ≥70%) | < 0.5 µM | C=CC(=O)N1C[C@@H](F)[C@@H](N(C)c2nc(OC[C@@H]3CC4(CC4)CN3C)nc3cc(-c4ccc(F)c5sc(N)c(C#N)c45)c(C(F)(F)F)cc23)C1 [Compound 357]
D (percent of modification <10%) | D (percent of modification <10%) | D (percent of modification <10%) | 0.5 to 5 µM | C=CC(=O)N1CC[C@H](N(C)c2nc(OC[C@@]34CCCN3C[C@H](F)C4)nc3c(F)c(-c4ccc(F)c5sc(N)c(C#N)c45)c(F)cc23)C1 [Compound 336]
A (percent of modification ≥70%) | A (percent of modification ≥70%) | A (percent of modification ≥70%) | < 0.5 µM | C=CC(=O)N1CC[C@@H](N(C)c2nc(OC[C@@]34CCCN3C[C@H](F)C4)nc3cc(-c4ccc(F)c5sc(N)c(C#N)c45)c(C#N)cc23)[C@H]1COC [Compound 393]
C (10%≤percent of modification <50%) | A (percent of modification ≥70%) | B (50≤percent of modification <70%) | < 0.5 µM | C=CC(=O)N1C[C@H](C)N(c2nc(OC[C@@]34CCCN3C[C@H](F)C4)nc3cc(-c4c(F)cc(F)c5sc(N)nc45)c(C(F)(F)F)cc23)C[C@H]1C [Compound 298, 1-((2R,5S)-4-(7-(2-amino-5,7-difluorobenzo[d]thiazol-4-yl)-2-(((2R,7aS)-2-fluorotetrahydro-1H-pyrrolizin-7a(5H)-yl)methoxy)-6-(trifluoromethyl)quinazolin-4-yl)-2,5-dimethylpiperazin-1-yl)prop-2-en-1-one]
A (percent of modification ≥70%) | A (percent of modification ≥70%) | A (percent of modification ≥70%) | < 0.5 µM | C=CC(=O)N1C[C@@H](F)[C@@H](N(C)c2nc(OC[C@@]34CCCN3C[C@H](F)C4)nc3cc(-c4ccc(F)c5sc(N)c(C#N)c45)c(C#N)cc23)C1 [Compound 372]
B (50≤percent of modification <70%) | A (percent of modification ≥70%) | B (50≤percent of modification <70%) | < 0.5 µM | C=CC(=O)N1CC[C@@H](N(C)c2nc(OCC3(CN4CC[C@@H](F)C4)CC3)nc3c(F)c(-c4ccc(F)c5sc(N)nc45)c(C(F)(F)F)cc23)C1 [Compound 288]
B (50≤percent of modification <70%) | B (50≤percent of modification <70%) | A (percent of modification ≥70%) | < 0.5 µM | C=CC(=O)N1CC[C@@H](N(C)c2nc(OC[C@@]34CCCN3C[C@H](F)C4)nc3cc(-c4ccc(F)c5sc(N)c(C#N)c45)c(C(F)(F)F)cc23)C1 [Compound 306]
